Legend:
mice = experiment: Tail flick test (latency to remove the tail from the light source); format: in vivo; conditions: 3α5βHS 10 and 15 mg/kg i.p.; cut-off time 10 seconds
Procedure: FIG. 9. […] Following the injection the mice were tested for every 10 min for 120 min. The latency to remove the tail from the light source was used as a measure of analgesia. […] The values are mean+SEM for 10-15 mice for each group. Data were analyzed using a one-way ANOVA followed by Fisher's LSD.* Denotes significance compared to control.
FIG. 10. […] Mice were injected with PACME (5, 10 or 15 mg/kg). Following the injection the mice were tested for every 10 min for 120 min. The latency to remove the tail from the light source was used as a measure of analgesia. […] Data were analyzed using a one-way ANOVA followed by Fisher's LSD. The values are mean±SEM for 10-15 mice for each group.* Denotes significance compared to control.
The data were analyzed using a one-way ANOVA followed by Fisher's LSD.

[1] = Levels of pregnanolones in the brain following 3α5βHS injection; conditions: following 3α5βHS 10 mg/kg, 20 min post injection
[2] = Determination of pregnanolone hemisuccinate tissue levels in whole brain after i.p. injection (HPLC ESI-MS); conditions: rat, 10 mg/kg i.p.; for 3α5βHS level in brain tissue: whole brain

pregnanolone hemisuccinate [3α5βHS]
lengthening of tail flick latency relative to cut-off time (mice): near maximal lengthening of the latency time
levels of pregnanolones present in the brain [1]: 10.9±2.8 pmol/g tissue
time until 3α5βHS is detected in the brain [2]: ≤ 10 min
3α5βHS level in brain tissue ([2]; 10 min post injection): 3.5 nmol/g
3α5βHS level in brain tissue ([2]; 60 min post injection): 0.5 nmol/g
time of peak 3α5βHS level in brain ([2]; post-injection): 10 min
